Measured affinities in a library of Ab-14 heavy chain variants

Values reported by Engelhart et al. 2022, doi:10.1038/s41597-022-01779-4 (FLAb copy).

Antigen: PDVDLGDISGINAS, a 14-residue peptide of the SARS-CoV-2 spike HR2 region.

Each scFv is VH, the linker GGGGSGGGGSGGGGS, VL, as in the parent Ab-14, and differs from it in the CDRs of the heavy chain only.
VH: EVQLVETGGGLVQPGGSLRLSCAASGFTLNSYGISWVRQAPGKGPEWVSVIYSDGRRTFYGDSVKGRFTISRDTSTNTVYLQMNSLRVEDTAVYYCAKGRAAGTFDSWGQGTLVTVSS
VL: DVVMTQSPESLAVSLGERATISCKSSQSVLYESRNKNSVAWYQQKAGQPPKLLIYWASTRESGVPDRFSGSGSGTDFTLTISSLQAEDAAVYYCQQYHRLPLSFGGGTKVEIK

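The parent was found by panning a naive human phage display library on the peptide. Library AAYL49 holds single substitutions and randomly drawn double and triple substitutions in the CDRs. AlphaSeq pools MATa yeast showing the antibodies with MATalpha yeast showing the peptide. Mating (16 h, 30 °C) was followed by selection of diploids and sequencing of their barcodes. A regression on co-assayed BCL2-family reference pairs converts the normalised counts of each replicate to an apparent Kd. Mating was done three times.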

Positions count from residue 1 of the parent VH; D62K puts K in place of D.
Each Kd is an estimate from the mating assay, the geometric mean of the replicates in which the pair was seen; lower is stronger.
"nd" marks a missing value. The strain was present, yet no cells mated with the target were sequenced in any replicate, which points to weak or no binding.

Kd (apparent)	replicates with signal	changes
8.0 nM	3 of 3	D62K R100M A101I
93 µM	1 of 3	F27M R57D A101P
10 µM	2 of 3	T28E L29H F59H
8.9 µM	2 of 3	L29I Y52D K65N
36 µM	1 of 3	G26V S31W I34S
nd	0 of 3	Y32H G55W A101S
nd	0 of 3	D54Y F59K S107P
nd	0 of 3	V64P D106E
nd	0 of 3	T28Y Y52K S53V
nd	0 of 3	G26A G33S
350 µM	2 of 3	I34F G55S G61Q
2.3 µM	1 of 3	T58S D62V D106K
nd	0 of 3	A101L F105R D106K
1.4 mM	1 of 3	V50S R100D
nd	0 of 3	T58A G99Q T104L
nd	0 of 3	L29I G103T F105C
720 nM	1 of 3	G55S K65N A101E
16 µM	3 of 3	T28V R57H S63K
9.1 µM	1 of 3	G55E V64S
nd	0 of 3	G33A Y60T K65V
1.7 µM	1 of 3	G26D I51S F105H
320 nM	3 of 3	T28Q D62M A101Q
nd	0 of 3	G26P R100Q D106P
49 nM	2 of 3	T58N R100L F105Q
nd	0 of 3	G26C G55D R56N
nd	0 of 3	I51T R100A
nd	0 of 3	Y32V V50H S63C
nd	0 of 3	G26W V50I S107K
200 µM	1 of 3	G55D T58L S63T
66 nM	3 of 3	N30M Y52F
12 nM	3 of 3	N30Q I34K R56H
17 µM	2 of 3	G26D S53H G61P
nd	0 of 3	T28N R56N
6.0 µM	1 of 3	Y32R G33H V64G
100 µM	1 of 3	V50T G61T F105D
nd	0 of 3	S53V G55V S107P
nd	0 of 3	D62M A101Q G103I
9.5 µM	1 of 3	S31E G33L G55R
5.3 µM	1 of 3	S31N G33V T58L
4.9 µM	1 of 3	G55M D62G T104A
nd	0 of 3	G55Y F105G
8.3 µM	2 of 3	F59G G61Y D106R
130 nM	3 of 3	G26R F27N G99A
47 µM	3 of 3	I34T I51V F59S
nd	0 of 3	L29W T58R
nd	0 of 3	S63N V64A A102R
170 nM	3 of 3	T28H S63P R100M
23 µM	1 of 3	T28I R57I G103P
87 nM	3 of 3	G26R I34F K65Q
nd	0 of 3	R57E D62K V64C
nd	0 of 3	S53V G55L V64L
230 nM	3 of 3	T28A K65W T104R
nd	0 of 3	S31R R57K V64A
nd	0 of 3	F59P A101D
14 µM	2 of 3	F59Y S63M F105D
22 µM	1 of 3	Y52E T58Q S107W
nd	0 of 3	F27W D54P G55W
nd	0 of 3	N30I A101Y A102H
nd	0 of 3	I34M G61R D62H
510 nM	3 of 3	V50C R100E
63 µM	1 of 3	G55T Y60G A101W
nd	0 of 3	L29N D54T R100A
nd	0 of 3	R57T T58E G61E
nd	0 of 3	S31A I51W
nd	0 of 3	S31Y G61I A102D
740 nM	1 of 3	S35I A101D
6.7 µM	1 of 3	S53P D106E S107V
1.5 µM	1 of 3	L29R T58E K65A
720 nM	1 of 3	S31L V50T D106I
290 nM	1 of 3	G33W S35G A102K
nd	0 of 3	V50H G55I S63V

For reference, the parent read 4.4 nM as the reference entry and 13 µM (one replicate of three) as a member of this library.
Three control strains display no target. For library AAYL49, 15% of the pairings with them gave a signal, with a median of 11 µM and one signal in twenty below 680 nM, so weak values seen in few replicates may be background.